Data on one molecule can be found in patent US5401749A, “9-amino-1,4ethano-1,2,3,4-tetrahydroacridine and related compounds” (Hoechst-Roussel Pharmaceuticals Inc., priority 1988, dated 1995).

The chains behind the UniProt entries cited, without tags or fusion partners. Residues count along the entry.
UniProt P22303, 32-614: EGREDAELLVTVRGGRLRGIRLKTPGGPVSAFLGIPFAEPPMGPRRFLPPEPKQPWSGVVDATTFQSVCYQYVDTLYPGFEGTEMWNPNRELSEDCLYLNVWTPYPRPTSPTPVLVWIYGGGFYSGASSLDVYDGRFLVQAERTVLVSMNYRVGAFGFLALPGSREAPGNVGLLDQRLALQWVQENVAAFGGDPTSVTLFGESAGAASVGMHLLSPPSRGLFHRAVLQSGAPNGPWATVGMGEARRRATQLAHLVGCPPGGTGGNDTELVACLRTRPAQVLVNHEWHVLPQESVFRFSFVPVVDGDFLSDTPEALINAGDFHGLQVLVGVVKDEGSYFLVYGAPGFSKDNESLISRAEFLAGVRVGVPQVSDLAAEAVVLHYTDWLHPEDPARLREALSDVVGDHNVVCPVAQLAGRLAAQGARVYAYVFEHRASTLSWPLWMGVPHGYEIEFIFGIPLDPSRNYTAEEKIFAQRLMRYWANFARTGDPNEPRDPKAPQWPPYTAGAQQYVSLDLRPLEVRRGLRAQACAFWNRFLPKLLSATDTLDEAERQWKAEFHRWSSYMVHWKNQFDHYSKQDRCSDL

The assay addresses Acetylcholinesterase (Homo sapiens, UniProt P22303). Briefly: Acetylcholinesterase Inhibition Assay (photometric method of Ellman et al.). The class given is biochemical.

Regarding `Nc1c2c(nc3ccccc13)C1CCC2C1` (stereo not shown) [9-Amino-1,4-methano-1,2,3,4-tetrahydroacridine], half-maximal inhibition (IC50) was put at 0.093 µM.

Broadly, the IC50 is the concentration at which inhibition is half-maximal. A low value points to greater potency.
